This experiment has as its target PARP-2 FL (Homo sapiens, UniProt Q9UGN5). The experiment in a line: Fluorescence polarization probe displacement assay. The class given is binding. As to conditions: PARP-2 FL 250 nM, probe compound P1 50 nM; average of three experiments; * = assay sensitivity limit. For orientation: Polarisation of emitted light reports the rotation of a fluorescent probe.

By UniProt entry, the sequences of proteins in these tests, tags left out. Where a name states a change or a piece, a line headed by the entry shows the natural chain unless it says otherwise.
UniProt Q9UGN5: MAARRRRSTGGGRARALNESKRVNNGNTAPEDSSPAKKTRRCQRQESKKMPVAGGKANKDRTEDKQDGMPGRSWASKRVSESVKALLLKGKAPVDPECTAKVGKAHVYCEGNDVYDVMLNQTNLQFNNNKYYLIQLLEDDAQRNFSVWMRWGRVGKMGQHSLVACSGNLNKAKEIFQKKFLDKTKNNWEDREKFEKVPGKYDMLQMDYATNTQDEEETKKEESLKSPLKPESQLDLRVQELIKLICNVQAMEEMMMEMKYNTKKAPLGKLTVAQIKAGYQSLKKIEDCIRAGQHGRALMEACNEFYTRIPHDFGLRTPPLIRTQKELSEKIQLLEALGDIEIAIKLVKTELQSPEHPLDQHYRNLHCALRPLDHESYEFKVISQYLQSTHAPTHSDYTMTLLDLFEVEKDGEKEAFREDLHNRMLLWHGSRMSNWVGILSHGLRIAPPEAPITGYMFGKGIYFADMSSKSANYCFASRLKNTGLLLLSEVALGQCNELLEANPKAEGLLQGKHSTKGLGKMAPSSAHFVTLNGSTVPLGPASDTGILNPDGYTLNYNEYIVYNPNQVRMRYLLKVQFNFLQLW

For one compound, Kd results are on record in patent publication US8993594B2, “Isoquinolin-1(2H)-one derivatives as PARP-1 inhibitors” (Nerviano Medical Sciences S.R.L., priority 2009, dated 2015).

For the compound `CN(C)CC(=O)Nc1ccc2[nH]c(=O)c3ccccc3c2c1` [PJ34, reference compound], the Kd was < 0.03 µM.

The Kd is the constant that tells how readily two partners part at equilibrium.
